Measurements from paper PMC7570497, “Design, Synthesis and Functional Analysis of Cyclic Opioid Peptides with Dmt-Tic Pharmacophore” (Molecules, 2020).

Chains of the proteins cited; added tags and fusions are not shown.
UniProt P35372, whole entry: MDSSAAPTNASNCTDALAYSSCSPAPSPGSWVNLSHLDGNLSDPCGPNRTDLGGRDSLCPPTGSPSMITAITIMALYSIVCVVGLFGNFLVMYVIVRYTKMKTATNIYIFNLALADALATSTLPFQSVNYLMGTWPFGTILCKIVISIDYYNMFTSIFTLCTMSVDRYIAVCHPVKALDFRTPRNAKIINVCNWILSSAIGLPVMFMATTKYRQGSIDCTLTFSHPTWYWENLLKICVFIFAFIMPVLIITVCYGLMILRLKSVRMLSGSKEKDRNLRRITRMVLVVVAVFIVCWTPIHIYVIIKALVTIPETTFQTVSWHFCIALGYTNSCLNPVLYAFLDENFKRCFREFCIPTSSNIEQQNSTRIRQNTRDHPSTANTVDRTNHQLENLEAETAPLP

Target: T1, human MOR (Homo sapiens, UniProt P35372)
T1 construct: expressed in transfected cells; host or cells: CHO cells (gift from Prof. Girolamo Calo, Ferrara University)
Experiment: Calcium mobilization assay, agonist mode, MOR
Format: cell-based

Structure (SMILES): CC[C@H](C)[C@H](NC(=O)[C@H](CCCNC(=N)N)NC(=O)[C@H](CCCNC(=N)N)NC(=O)[C@H](CC(C)C)NC(=O)[C@H](Cc1ccccc1)NC(=O)CNC(=O)CNC(=O)[C@@H](N)Cc1ccc(O)cc1)C(=O)N[C@@H](CCCNC(=N)N)C(=O)N1CCC[C@H]1C(=O)N[C@@H](CCCCN)C(=O)N[C@@H](CC(C)C)C(=O)N[C@@H](CCCCN)C(=O)N[C@@H](Cc1c[nH]c2ccccc12)C(=O)N[C@@H](CC(=O)O)C(=O)N[C@@H](CC(N)=O)C(=O)N[C@@H](CCC(N)=O)C(=O)O [dynorphin A, reference compound]
- MOR α ± SEM (efficacy, intrinsic activity) (CHO cells co-expressing human MOR and Gαqi5, ratio of peptide Emax to Emax of dermorphin, inactive = inactive up to 10 μM, n ≥ 5): 0.83 ± 0.10

Structure (SMILES): C[C@@H](NC(=O)[C@@H](N)Cc1ccc(O)cc1)C(=O)N[C@@H](Cc1ccccc1)C(=O)NCC(=O)N[C@@H](Cc1ccc(O)cc1)C(=O)N1CCC[C@H]1C(=O)N[C@@H](CO)C(N)=O [dermorphin, reference compound]
- EC50: 2.19 nM
